Among the data in ChEMBL document CHEMBL1144605, “Discovery of an androgen receptor modulator pharmacophore based on 2-quinolinones” (Bioorg Med Chem Lett, 2007) are Selectivity ratio values, retold here.

The species entered for test [1] is Homo sapiens. The experiment in a line: Selectivity for androgen receptor over glucocorticoid receptor.
For test [2], the species on record is Homo sapiens. In words: Selectivity for androgen receptor over progesterone receptor.
Test [3] is filed under the species Homo sapiens. The experiment in a line: Selectivity for androgen receptor over mineralocorticoid receptor.
Test [4] is filed under the species Homo sapiens. In words: Selectivity for androgen receptor over estrogen receptor.

In the case of `O=c1cc(C(F)(F)F)c2ccc(NCC(F)(F)C(F)(F)F)cc2[nH]1`, the Selectivity ratio in test [1] is above 100; in test [2], above 10; in test [3], above 100; in test [4] it was above 100.

For the compound `CC(C)Nc1ccc2c(C(F)(F)F)cc(=O)[nH]c2c1`, the Selectivity ratio in test [1] is above 100; in test [2] it was above 10; in test [3], above 100; in test [4] it was above 100.

For the compound `CCN(CC(F)(F)F)c1ccc2c(C(F)(F)F)cc(=O)[nH]c2c1`, the Selectivity ratio in test [1] is above 100; in test [2], above 10; in test [3], above 100; in test [4], above 100.

In the case of `CCCc1cc2c(C(F)(F)F)cc(=O)[nH]c2cc1N`, the Selectivity ratio in test [1] is above 100; in test [2], above 10; in test [3], above 100; in test [4] it was above 100.

Consider `CNc1ccc2c(C(F)(F)F)cc(=O)[nH]c2c1`, for which the Selectivity ratio in test [1] is above 100; in test [2], above 10; in test [3], above 100; in test [4] it was above 100.

On to `O=c1cc(C(F)(F)F)c2cc(NCC(F)(F)F)ccc2[nH]1`, for which the Selectivity ratio is above 100 in test [1], above 10 in test [2], above 100 in test [3] and above 100 in test [4].

Take `CCc1cc2c(C(F)(F)F)cc(=O)[nH]c2cc1N`: the Selectivity ratio in test [1] is above 100; in test [2], above 10; in test [3], above 100; in test [4] it was above 100.

On to `CCNc1ccc2c(C(F)(F)F)cc(=O)[nH]c2c1`, for which the Selectivity ratio in test [1] was above 100; in test [2], above 10; in test [3], above 100; in test [4], above 100.

As for `O=c1cc(C(F)(F)F)c2ccc(NCC(F)(F)F)cc2[nH]1`, the Selectivity ratio in test [1] is above 100; in test [2], above 10; in test [3], above 100; in test [4], above 100.
